Measured values published in patent US10774092B2 (SALK INSTITUTE FOR BIOLOGICAL STUDIES, priority 2014, dated 2020).
pIC50: −log10 of the molar value.

Amino acid sequences for entries named in this document (tags omitted). A change or cut given only in a name is not applied to a line headed by its entry.
UniProt O75385: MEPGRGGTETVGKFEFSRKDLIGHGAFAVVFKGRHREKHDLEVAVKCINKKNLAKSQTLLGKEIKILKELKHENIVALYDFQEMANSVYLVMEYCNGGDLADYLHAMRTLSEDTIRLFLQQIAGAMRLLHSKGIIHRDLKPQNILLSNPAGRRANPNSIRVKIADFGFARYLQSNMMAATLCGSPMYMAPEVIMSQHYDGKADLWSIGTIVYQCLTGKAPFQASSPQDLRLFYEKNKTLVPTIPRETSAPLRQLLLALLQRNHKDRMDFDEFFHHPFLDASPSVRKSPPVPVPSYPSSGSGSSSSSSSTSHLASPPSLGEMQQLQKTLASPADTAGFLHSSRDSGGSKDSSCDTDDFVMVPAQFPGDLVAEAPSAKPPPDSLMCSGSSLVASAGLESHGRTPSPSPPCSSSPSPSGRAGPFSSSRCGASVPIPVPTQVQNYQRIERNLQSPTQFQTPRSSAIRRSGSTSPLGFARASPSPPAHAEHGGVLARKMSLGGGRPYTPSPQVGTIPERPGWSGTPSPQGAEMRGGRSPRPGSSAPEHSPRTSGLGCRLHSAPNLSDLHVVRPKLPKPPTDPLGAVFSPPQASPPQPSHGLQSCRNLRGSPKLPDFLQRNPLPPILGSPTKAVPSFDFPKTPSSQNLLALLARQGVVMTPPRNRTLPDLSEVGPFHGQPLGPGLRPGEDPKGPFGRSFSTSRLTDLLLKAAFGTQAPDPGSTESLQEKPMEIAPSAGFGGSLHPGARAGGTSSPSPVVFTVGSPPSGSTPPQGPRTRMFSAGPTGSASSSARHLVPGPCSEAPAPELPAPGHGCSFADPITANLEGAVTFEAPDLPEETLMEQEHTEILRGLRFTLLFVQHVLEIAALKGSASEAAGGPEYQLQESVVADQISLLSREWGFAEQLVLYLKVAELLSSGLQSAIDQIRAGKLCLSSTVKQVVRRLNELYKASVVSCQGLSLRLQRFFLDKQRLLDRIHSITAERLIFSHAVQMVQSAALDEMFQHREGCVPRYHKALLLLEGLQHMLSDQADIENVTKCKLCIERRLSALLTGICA

Biological target: ULK1 (Homo sapiens, UniProt O75385)
Test: ULK1 inhibition assay (Table 1)
Format: biochemical
Settings: not given

`Nc1n[nH]c(Nc2nc(Nc3ccc4c(c3)CCC(=O)N4)ncc2C(F)(F)F)n1` [Example 243, 6-((4-((3-amino-1H-1,2,4-triazol-5-yl)amino)-5-(trifluoromethyl)pyrimidin-2-yl)amino)-3,4-dihydroquinolin-2(1H)-one] gave a pIC50 of 5.70 to 6.70.

Same assay, conditions: ULK1 inhibition assay; * = tested as a mixture of regioisomers

`FC(F)(F)c1cnc(Nc2ccc3nccnc3c2)nc1NC1CC1` [Example 305, N4-cyclopropyl-N2-(quinoxalin-6-yl)-5-(trifluoromethyl) pyrimidine-2,4-diamine] and `FC(F)(F)c1cnc(Nc2ccc3nc[nH]c3c2)nc1NC1CC1` [Example 211, N2-(1H-benzo[d]imidazol-6-yl)-N4-cyclopropyl-5-(trifluoromethyl)pyrimidine-2,4-diamine] cannot be ordered by pIC50: greater than 6.70 for the first, greater than 6.70 for the second.

Compared with `O=C1CCc2cc(Nc3ncc(C(F)(F)F)c(NCC(F)(F)F)n3)ccc2N1` [Example 222, 6-((4-((2,2,2-trifluoroethyl)amino)-5-(trifluoromethyl)pyrimidin-2-yl)amino)-3,4-dihydroquinolin-2(1H)-one], `CS(=O)(=O)Nc1nc(Nc2ccc3c(c2)CCC(=O)N3)ncc1C(F)(F)F` [Example 226, N-(2-((2-oxo-1,2,3,4-tetrahydroquinolin-6-yl)amino)-5-(trifluoromethyl)pyrimidin-4-yl)methanesulfonamide] is lower in pIC50: greater than 6.70 for the first, less than 5.70 for the second.

`FC(F)(F)c1cnc(Nc2ccc3[nH]ncc3c2)nc1NC1CC1` [Example 195, N4-cyclopropyl-N2-(1H-indazol-5-yl)-5-(trifluoromethyl) pyrimidine-2,4-diamine] and `Oc1ccccc1Nc1ncc(C(F)(F)F)c(NC2CC2)n1` [Example 255, 2-((4-(cyclopropylamino)-5-(trifluoromethyl)pyrimidin-2-yl)amino)phenol] cannot be ordered by pIC50: greater than 6.70 for the first, greater than 6.70 for the second.
